Experiments:
SJSA-1 cells = assay: Cell viability assay (MTT, 72 h) SJSA-1; conditions: read-out: SJSA-1 EC50 (72 h), Table 26B
[1] = system: p53+/+ cells relative to p53−/− cells; assay: EC50 ratio from MTT cell viability assays (p53+/+ cells vs p53−/− cells); assay type: cell-based; conditions: ratio of average IC50 in p53+/+ cells relative to average IC50 in p53−/− cells

**Q.** Which EC50 (SJSA-1 cells) does the source give for “5-FAM-BaLTA$5rn6EYWAQCba$5a5SAA-NH2 [SP464]” here?
**A.** > 30 µM

**Q.** For “5-FAM-BaLTF$4rn6EYWAQCba$4a5SAA-NH2 [SP461]”, which EC50 (SJSA-1 cells) is on record?
**A.** 5 to 15 µM

**Q.** With “5-FAM-BaLTF$5rn6EYWAQCba$5a5SAA-NH2 [SP463]” as the compound, how does the EC50 (SJSA-1 cells) read?
**A.** 15 to 30 µM

**Q.** With `CC(=O)N[C@@H](CC(C)C)C(=O)N[C@H](C(=O)N[C@@H](Cc1ccccc1)C(=O)N[C@]1(C)CCCCCCC=CCCC[C@@](C)(C(=O)N[C@@H](C)C(=O)N[C@@H](C)C(=O)N[C@@H](Cc2ccccc2)C(=O)N[C@H](C)C(N)=O)NC(=O)[C@H](CC(C)C)NC(=O)[C@H](CCC(N)=O)NC(=O)[C@H](C)NC(=O)[C@H](Cc2c[nH]c3ccccc23)NC(=O)[C@H](Cc2ccc(O)cc2)NC(=O)[C@H](CCC(=O)O)NC1=O)[C@@H](C)O` (single isomer, unassigned) [compound 219] as the compound, how does the “EC50 Ratio” value [1] read?
**A.** 1-29

**Q.** `CC(=O)N[C@@H](CC(C)C)C(=O)N[C@H](C(=O)N[C@@H](Cc1ccccc1)C(=O)N[C@]1(C)CCCCCCC=CCCC[C@@](C)(C(=O)N[C@@H](C)C(=O)N[C@@H](C)C(=O)N[C@@H](C)C(=O)N[C@@H](C)C(=O)N[C@@H](C)C(=O)N[C@@H](C)C(=O)N[C@H](C)C(N)=O)NC(=O)[C@H](CC(C)C)NC(=O)[C@H](CCC(N)=O)NC(=O)[C@H](C)NC(=O)[C@H](Cc2c[nH]c3ccccc23)NC(=O)[C@H](Cc2ccc(O)cc2)NC(=O)[C@H](C)NC1=O)[C@@H](C)O` (single isomer, unassigned) [compound 316] was tested. Which “EC50 Ratio” value [1] did it give?
**A.** ≧50

**Q.** How did the “EC50 Ratio” value [1] turn out when `CC(=O)N[C@@H](C)C(=O)N[C@@H](CC(C)C)C(=O)N[C@H](C(=O)N[C@@H](Cc1ccccc1)C(=O)N[C@]1(C)CCCCCCC=CCCC[C@@](C)(C(=O)N[C@@H](CO)C(=O)N[C@@H](C)C(=O)N[C@@H](C)C(=O)N[C@H](C)C(N)=O)NC(=O)[C@H](CC2CCC2)NC(=O)[C@H](CCC(N)=O)NC(=O)[C@H](C)NC(=O)[C@H](Cc2c[nH]c3ccccc23)NC(=O)[C@H](Cc2ccc(O)cc2)NC(=O)[C@H](CCC(=O)O)NC1=O)[C@@H](C)O` (single isomer, unassigned) [compound 355] was run?
**A.** 1-29

**Q.** For `CC(=O)N[C@@H](CC(C)C)C(=O)N[C@H](C(=O)N[C@@H](Cc1ccccc1)C(=O)N[C@]1(C)CCCCCC/C=C/CCC[C@@](C)(C(=O)N[C@@H](CO)C(=O)N[C@@H](C)C(=O)N[C@@H](C)C(N)=O)NC(=O)[C@H](CCC(C)C)NC(=O)[C@H](CCC(N)=O)NC(=O)[C@H](C)NC(=O)[C@H](Cc2c[nH]c3ccccc23)NC(=O)[C@H](Cc2ccc(O)cc2)NC(=O)[C@H](C)NC1=O)[C@@H](C)O` [compound 115], which “EC50 Ratio” value [1] is on record?
**A.** 1-29

**Q.** Which “EC50 Ratio” value [1] does the source give for `CC(=O)N[C@@H](CC(C)C)C(=O)N[C@H](C(=O)N[C@@H](Cc1ccccc1)C(=O)N[C@]1(C)CCCCCCC=CCCC[C@@](C)(C(=O)N[C@@H](CO)C(=O)N[C@@H](C)C(=O)N[C@@H](CO)C(N)=O)NC(=O)[C@H](CC(C)C)NC(=O)[C@H](CCC(N)=O)NC(=O)[C@H](C)NC(=O)[C@H](Cc2c[nH]c3ccccc23)NC(=O)[C@H](Cc2ccc(O)cc2)NC(=O)[C@H](C)NC1=O)[C@@H](C)O` [compound 122] here?
**A.** 1-29

**Q.** How did the “EC50 Ratio” value [1] turn out when `CC(=O)N[C@@H](CC(C)C)C(=O)N[C@H](C(=O)N[C@@H](Cc1ccc(F)c(F)c1)C(=O)N[C@]1(C)CCCCCC/C=C/CCC[C@@](C)(C(=O)N[C@@H](CO)C(=O)N[C@@H](C)C(=O)N[C@@H](C)C(N)=O)NC(=O)[C@H](CCC(C)C)NC(=O)[C@H](CCC(N)=O)NC(=O)[C@H](C)NC(=O)[C@H](Cc2c[nH]c3ccccc23)NC(=O)[C@H](Cc2ccc(O)cc2)NC(=O)[C@H](CCC(=O)O)NC1=O)[C@@H](C)O` [compound 160] was run?
**A.** 1-29

**Q.** How did the “EC50 Ratio” value [1] turn out when `CCCC[C@H](NC(=O)[C@H](C)NC(=O)[C@H](CO)NC(=O)[C@]1(C)CCCC=CCCCCCC[C@@](C)(NC(=O)[C@H](Cc2ccccc2)NC(=O)[C@@H](NC(=O)[C@H](CC(C)C)NC(C)=O)[C@@H](C)O)C(=O)N[C@@H](CCC(=O)O)C(=O)N[C@@H](Cc2ccc(C(=O)O)cc2)C(=O)N[C@@H](Cc2c[nH]c3ccccc23)C(=O)N[C@@H](C)C(=O)N[C@@H](CCC(N)=O)C(=O)N[C@@H](CC2CCC2)C(=O)N1)C(=O)N[C@@H](C)C(N)=O` [compound 244] was run?
**A.** ≧50

**Q.** Which “EC50 Ratio” value [1] does the source give for `CC[C@H](C)[C@H](NC(=O)[C@H](C)NC(=O)[C@H](C)NC(=O)[C@]1(C)CCC/C=C/CCCCCC[C@@](C)(NC(=O)[C@H](Cc2ccccc2)NC(=O)[C@@H](NC(=O)[C@H](CC(C)C)NC(C)=O)[C@@H](C)O)C(=O)N[C@@H](CCC(=O)O)C(=O)N[C@@H](Cc2ccc(C(=O)O)cc2)C(=O)N[C@@H](Cc2c[nH]c3ccccc23)C(=O)N[C@@H](C)C(=O)N[C@@H](CCC(N)=O)C(=O)N[C@@H](CC2CCC2)C(=O)N1)C(=O)N[C@H](C)C(N)=O` [compound 249] here?
**A.** ≧50

**Q.** How did the “EC50 Ratio” value [1] turn out when `CC(=O)N[C@@H](CC(C)C)C(=O)N[C@H](C(=O)N[C@@H](Cc1ccccc1)C(=O)N[C@]1(C)CCCCCC/C=C/CCC[C@@](C)(C(=O)N[C@@H](C)C(=O)N[C@@H](C)C(=O)N[C@@H](C)C(=O)N[C@@H](C)C(=O)N[C@@H](C)C(=O)N[C@H](C)C(N)=O)NC(=O)[C@H](CC2CCC2)NC(=O)[C@H](CCC(N)=O)NC(=O)[C@H](C)NC(=O)[C@H](Cc2c[nH]c3ccccc23)NC(=O)[C@H](Cc2ccc(C(=O)O)cc2)NC(=O)[C@H](CCC(=O)O)NC1=O)[C@@H](C)O` [compound 349] was run?
**A.** 30-49

**Q.** How did the “EC50 Ratio” value [1] turn out when `CC(=O)N[C@@H](CC(C)C)C(=O)N[C@H](C(=O)N[C@@H](Cc1ccccc1)C(=O)N[C@]1(C)CCCCCC/C=C/CCC[C@@](C)(C(=O)N[C@@H](C)C(=O)N[C@@H](C)C(=O)N[C@@H](C)C(=O)N[C@@H](C)C(=O)N[C@@H](C)C(=O)N[C@H](C)C(N)=O)NC(=O)[C@H](CC2CCC2)NC(=O)[C@H](CCC(N)=O)NC(=O)[C@H](CO)NC(=O)[C@H](Cc2c[nH]c3ccccc23)NC(=O)[C@H](Cc2ccc(O)cc2)NC(=O)[C@H](CCC(=O)O)NC1=O)[C@@H](C)O` [compound 351] was run?
**A.** 30-49

**Q.** For `CC(=O)N[C@@H](CC(C)C)C(=O)N[C@H](C(=O)N[C@@H](Cc1ccccc1)C(=O)N[C@]1(C)CCCCCCC=CCCC[C@@](C)(C(=O)N[C@@H](CO)C(=O)N[C@@H](C)C(=O)N[C@@H](C)C(N)=O)NC(=O)[C@H](CC2CCC2)NC(=O)[C@H](CCC(N)=O)NC(=O)[C@H](CNC(=O)c2cc3ccc(O)cc3oc2=O)NC(=O)[C@H](Cc2c[nH]c3ccccc23)NC(=O)[C@H](Cc2ccc(O)cc2)NC(=O)[C@H](CCC(=O)O)NC1=O)[C@@H](C)O` [compound 433], which “EC50 Ratio” value [1] is on record?
**A.** 1-29

**Q.** With `CC(=O)N[C@@H](CC(C)C)C(=O)N[C@H](C(=O)N[C@@H](Cc1ccccc1)C(=O)N[C@]1(C)CCCCCCCCCCC[C@@](C)(C(=O)N[C@@H](C)C(=O)N[C@@H](C)C(=O)N[C@@H](C)C(=O)N[C@@H](C)C(=O)N[C@@H](C)C(=O)N[C@H](C)C(N)=O)NC(=O)[C@H](CC(C)C)NC(=O)[C@H](CCC(N)=O)NC(=O)[C@H](C)NC(=O)[C@H](Cc2c[nH]c3ccccc23)NC(=O)[C@H](Cc2ccc(O)cc2)NC(=O)[C@H](CCC(=O)O)NC1=O)[C@@H](C)O` [compound 445] as the compound, how does the “EC50 Ratio” value [1] read?
**A.** ≧50

**Q.** Which “EC50 Ratio” value [1] does the source give for `CC(=O)N[C@@H](CC(C)C)C(=O)N[C@H](C(=O)N[C@@H](Cc1ccccc1)C(=O)N[C@]1(C)CCCCCC/C=C/CCC[C@@](C)(C(=O)N[C@@H](C)C(=O)N[C@@H](C)C(=O)N[C@@H](C)C(=O)N[C@@H](C)C(=O)N[C@@H](C)C(=O)N[C@H](C)C(N)=O)NC(=O)[C@H](CC(C)C)NC(=O)[C@H](CCC(N)=O)NC(=O)[C@H](C)NC(=O)[C@H](Cc2c[nH]c3cc(Cl)ccc23)NC(=O)[C@H](Cc2ccc(O)cc2)NC(=O)[C@H](CCC(=O)O)NC1=O)[C@@H](C)O` [compound 555] here?
**A.** ≧50

**Q.** How did the “EC50 Ratio” value [1] turn out when `CC(=O)N[C@@H](C)C(=O)N[C@@H](C)C(=O)N[C@@H](C)C(=O)N[C@@H](CC(C)C)C(=O)N[C@H](C(=O)N[C@@H](Cc1ccccc1)C(=O)N[C@]1(C)CCCCCC/C=C/CCC[C@@](C)(C(=O)N[C@@H](C)C(=O)N[C@@H](C)C(=O)N[C@@H](C)C(=O)N[C@@H](C)C(=O)N[C@@H](C)C(=O)N[C@H](C)C(N)=O)NC(=O)[C@H](CC(C)C)NC(=O)[C@H](CCC(N)=O)NC(=O)[C@H](C)NC(=O)[C@H](Cc2c[nH]c3ccccc23)NC(=O)[C@H](Cc2ccc(O)cc2)NC(=O)[C@H](CCC(=O)O)NC1=O)[C@@H](C)O` [compound 557] was run?
**A.** ≧50

**Q.** How did the “EC50 Ratio” value [1] turn out when `CC(=O)N[C@@H](CCCNC(=N)N)C(=O)N[C@H](C(=O)N[C@@H](Cc1ccccc1)C(=O)N[C@]1(C)CCCCCCC=CCCC[C@@](C)(C(=O)N[C@@H](C)C(=O)N[C@@H](C)C(=O)N[C@@H](C)C(=O)N[C@@H](C)C(=O)N[C@@H](C)C(=O)N[C@H](C)C(N)=O)NC(=O)[C@H](CC(C)C)NC(=O)[C@H](CCC(N)=O)NC(=O)[C@H](C)NC(=O)[C@H](Cc2c[nH]c3ccccc23)NC(=O)[C@H](Cc2ccc(O)cc2)NC(=O)[C@H](CCC(=O)O)NC1=O)[C@@H](C)O` [compound 559] was run?
**A.** ≧50

**Q.** For `CC(=O)N[C@@H](CC(C)C)C(=O)N[C@H](C(=O)N[C@@H](Cc1ccccc1)C(=O)N[C@]1(C)CCCCCC/C=C/CCC[C@@](C)(C(=O)N[C@@H](C)C(=O)N[C@@H](C)C(=O)N[C@@H](C)C(=O)N[C@@H](C)C(=O)N[C@@H](C)C(=O)NC(C)(C)C(N)=O)NC(=O)[C@H](CC(C)C)NC(=O)[C@H](CCC(N)=O)NC(=O)[C@H](C)NC(=O)[C@H](Cc2c[nH]c3ccccc23)NC(=O)[C@H](Cc2ccc(O)cc2)NC(=O)[C@H](CCC(=O)O)NC1=O)[C@@H](C)O` [compound 567], which “EC50 Ratio” value [1] is on record?
**A.** ≧50

**Q.** `CC(=O)N[C@@H](CC(C)C)C(=O)N[C@H](C(=O)N[C@@H](Cc1ccccc1)C(=O)N[C@]1(C)CCCCC#CC#CCCC[C@@](C)(C(=O)N[C@@H](C)C(=O)N[C@@H](C)C(=O)N[C@@H](C)C(=O)N[C@@H](C)C(=O)N[C@@H](C)C(=O)N[C@H](C)C(N)=O)NC(=O)[C@H](CC(C)C)NC(=O)[C@H](CCC(N)=O)NC(=O)[C@H](C)NC(=O)[C@H](Cc2c[nH]c3ccccc23)NC(=O)[C@H](Cc2ccc(O)cc2)NC(=O)[C@H](C)NC1=O)[C@@H](C)O` [compound 662] was tested. Which “EC50 Ratio” value [1] did it give?
**A.** ≧50

Source: patent US20170349638A1, “COMPANION DIAGNOSTIC TOOL FOR PEPTIDOMIMETIC MACROCYCLES” (AILERON Therapeutics, Inc., priority 2016, published 2017)
